Literature values, collected in patent US20250101062A1, “ANTIMICROBIAL PEPTIDES” (Board of Regents of the University of Nebraska, priority 2023, published 2025).

Test system: E. coli
Settings: data from the antimicrobial peptide database; cited from earlier work

ACDTATCVTHRLAGLLSRSGGVVKNNFVPTNVGSKAF [Calcitonin gene-related peptide]
MIC against E. coli: 2.1 µg/mL
